Measurements published in patent US10174036B2, “Substituted pyrazoles as JAK inhibitors” (WUXI FORTUNE PHARMACEUTICAL CO., LTD, priority 2015, dated 2019).

Amino acid sequences for entries named in this document (tags omitted).
UniProt O60674, whole entry: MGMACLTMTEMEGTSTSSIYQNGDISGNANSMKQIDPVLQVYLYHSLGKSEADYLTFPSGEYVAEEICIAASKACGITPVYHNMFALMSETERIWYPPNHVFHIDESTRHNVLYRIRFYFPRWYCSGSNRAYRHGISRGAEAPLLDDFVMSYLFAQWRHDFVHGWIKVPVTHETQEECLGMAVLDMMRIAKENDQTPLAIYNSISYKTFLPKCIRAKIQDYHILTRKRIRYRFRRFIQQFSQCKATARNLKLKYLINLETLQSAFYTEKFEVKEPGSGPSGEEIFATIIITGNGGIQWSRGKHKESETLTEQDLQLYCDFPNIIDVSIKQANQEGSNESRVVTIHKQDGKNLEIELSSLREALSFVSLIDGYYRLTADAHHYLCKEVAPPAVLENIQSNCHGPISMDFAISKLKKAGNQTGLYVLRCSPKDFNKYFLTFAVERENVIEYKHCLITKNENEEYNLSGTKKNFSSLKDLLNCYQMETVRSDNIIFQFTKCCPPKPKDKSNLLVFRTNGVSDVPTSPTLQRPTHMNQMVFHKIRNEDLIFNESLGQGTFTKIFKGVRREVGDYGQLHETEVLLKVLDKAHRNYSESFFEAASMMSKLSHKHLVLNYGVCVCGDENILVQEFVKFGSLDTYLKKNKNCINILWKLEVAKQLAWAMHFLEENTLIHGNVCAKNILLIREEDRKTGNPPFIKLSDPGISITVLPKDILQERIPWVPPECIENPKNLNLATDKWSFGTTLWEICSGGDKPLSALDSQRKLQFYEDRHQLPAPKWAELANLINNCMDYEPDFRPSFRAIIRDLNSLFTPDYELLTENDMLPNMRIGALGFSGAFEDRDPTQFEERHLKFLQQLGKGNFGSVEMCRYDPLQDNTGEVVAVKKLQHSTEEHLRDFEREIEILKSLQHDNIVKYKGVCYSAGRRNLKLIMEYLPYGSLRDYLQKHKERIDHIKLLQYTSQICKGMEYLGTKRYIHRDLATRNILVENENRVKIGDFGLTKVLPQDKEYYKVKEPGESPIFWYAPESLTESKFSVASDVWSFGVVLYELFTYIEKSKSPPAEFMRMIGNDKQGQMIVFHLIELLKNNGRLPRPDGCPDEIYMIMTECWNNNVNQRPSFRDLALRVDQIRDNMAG
UniProt P23458, whole entry: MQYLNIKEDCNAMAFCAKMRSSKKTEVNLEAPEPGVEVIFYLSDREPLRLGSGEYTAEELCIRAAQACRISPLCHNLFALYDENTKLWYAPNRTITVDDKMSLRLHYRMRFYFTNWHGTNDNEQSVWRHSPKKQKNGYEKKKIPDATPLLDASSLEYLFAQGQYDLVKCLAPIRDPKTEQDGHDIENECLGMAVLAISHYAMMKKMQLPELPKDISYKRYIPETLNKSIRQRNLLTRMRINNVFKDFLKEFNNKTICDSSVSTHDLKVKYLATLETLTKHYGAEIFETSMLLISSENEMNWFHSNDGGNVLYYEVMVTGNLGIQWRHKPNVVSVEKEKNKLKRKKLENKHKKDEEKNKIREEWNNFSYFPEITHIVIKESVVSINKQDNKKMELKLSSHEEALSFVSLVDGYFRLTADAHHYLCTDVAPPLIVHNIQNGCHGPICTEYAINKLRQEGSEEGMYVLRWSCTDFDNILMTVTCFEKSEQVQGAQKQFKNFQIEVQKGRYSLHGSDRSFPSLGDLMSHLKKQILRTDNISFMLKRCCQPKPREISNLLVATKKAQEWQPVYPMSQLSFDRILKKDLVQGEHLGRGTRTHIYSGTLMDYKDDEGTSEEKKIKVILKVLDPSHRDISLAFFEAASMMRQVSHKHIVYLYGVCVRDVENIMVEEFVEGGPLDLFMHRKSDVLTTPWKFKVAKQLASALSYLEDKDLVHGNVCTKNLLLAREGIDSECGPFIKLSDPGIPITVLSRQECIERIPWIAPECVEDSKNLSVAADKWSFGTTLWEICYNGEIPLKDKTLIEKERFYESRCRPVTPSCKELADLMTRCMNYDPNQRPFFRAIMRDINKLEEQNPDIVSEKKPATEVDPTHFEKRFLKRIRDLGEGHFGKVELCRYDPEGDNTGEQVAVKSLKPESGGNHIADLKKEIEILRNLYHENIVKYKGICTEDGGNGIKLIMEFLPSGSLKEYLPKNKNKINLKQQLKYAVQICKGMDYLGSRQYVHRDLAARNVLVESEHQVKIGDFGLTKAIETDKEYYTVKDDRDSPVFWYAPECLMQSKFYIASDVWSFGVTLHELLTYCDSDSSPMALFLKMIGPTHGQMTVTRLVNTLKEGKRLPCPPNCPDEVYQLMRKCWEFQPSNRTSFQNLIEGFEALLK
UniProt P52333, whole entry: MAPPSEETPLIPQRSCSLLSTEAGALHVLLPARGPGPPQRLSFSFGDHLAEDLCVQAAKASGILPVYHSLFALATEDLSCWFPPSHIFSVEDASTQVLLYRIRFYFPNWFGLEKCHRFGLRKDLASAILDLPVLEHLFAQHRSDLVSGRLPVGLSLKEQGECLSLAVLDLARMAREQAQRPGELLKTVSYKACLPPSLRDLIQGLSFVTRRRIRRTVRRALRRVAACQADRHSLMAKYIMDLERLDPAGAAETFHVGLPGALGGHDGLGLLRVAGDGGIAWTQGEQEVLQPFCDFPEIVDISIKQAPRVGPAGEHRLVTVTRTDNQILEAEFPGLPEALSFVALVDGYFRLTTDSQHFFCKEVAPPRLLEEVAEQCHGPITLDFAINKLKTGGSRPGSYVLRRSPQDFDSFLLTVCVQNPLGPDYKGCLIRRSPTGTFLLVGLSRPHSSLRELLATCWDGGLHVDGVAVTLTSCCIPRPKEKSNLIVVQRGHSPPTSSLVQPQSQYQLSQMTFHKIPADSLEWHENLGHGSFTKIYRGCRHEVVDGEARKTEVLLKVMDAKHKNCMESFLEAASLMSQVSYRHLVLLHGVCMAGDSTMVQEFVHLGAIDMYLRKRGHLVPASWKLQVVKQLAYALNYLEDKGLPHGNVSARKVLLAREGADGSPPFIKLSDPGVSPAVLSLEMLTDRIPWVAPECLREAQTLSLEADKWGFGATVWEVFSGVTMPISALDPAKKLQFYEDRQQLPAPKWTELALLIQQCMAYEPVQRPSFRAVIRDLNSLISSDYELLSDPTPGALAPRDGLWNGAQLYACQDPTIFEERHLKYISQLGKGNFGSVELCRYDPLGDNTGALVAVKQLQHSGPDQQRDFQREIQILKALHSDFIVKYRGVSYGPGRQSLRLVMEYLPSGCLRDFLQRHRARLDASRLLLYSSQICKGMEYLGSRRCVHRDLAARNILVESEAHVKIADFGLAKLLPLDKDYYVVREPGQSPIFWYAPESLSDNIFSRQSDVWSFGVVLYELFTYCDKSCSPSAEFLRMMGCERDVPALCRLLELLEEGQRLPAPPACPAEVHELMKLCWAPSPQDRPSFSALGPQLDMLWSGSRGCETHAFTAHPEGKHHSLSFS

Tests used:
JAK2 = JAK2 (Homo sapiens, UniProt O60674); experiment: Test for in vitro activity of JAK2 kinase (LANCE Ultra ULight-JAK-1 peptide); conditions: read-out: JAK2; recombinant human JAK2, 12 uM ATP, 60 min; class symbol
JAK1 = JAK1 (Homo sapiens, UniProt P23458); experiment: Test for in vitro activity of JAK1 kinase (LANCE Ultra ULight-JAK-1 peptide); format: biochemical; conditions: selectivity ratio JAK1 versus JAK2; class symbol
JAK3 = JAK3 (Homo sapiens, UniProt P52333); experiment: Test for in vitro activity of JAK3 kinase (LANCE Ultra ULight-JAK-1 peptide); conditions: selectivity ratio JAK3 versus JAK2; class symbol

SMILES: N#CCC1(n2cc(-c3cccn4nc(NC(=O)C5CC5)nc34)cn2)CN(S(=O)(=O)C2CC2)C1
- IC50 (JAK2): < 10 nM
- JAK1/JAK2 (times) (JAK1): F1 (1 ≤ F1 ≤ 5)
- JAK3/JAK2 (times) (JAK3): F4 (25 < F4 ≤ 100)
